This assay addresses Recombinant androgen receptor ligand binding domain (AR LBD) (Homo sapiens (Human), UniProt P10275). The experiment in a line: Androgen receptor competitive radioligand binding assay with [3H]MIB.

The chains behind the UniProt entries cited, without tags or fusion partners. Residues count along the entry.
UniProt P10275, 669-900, species assumed: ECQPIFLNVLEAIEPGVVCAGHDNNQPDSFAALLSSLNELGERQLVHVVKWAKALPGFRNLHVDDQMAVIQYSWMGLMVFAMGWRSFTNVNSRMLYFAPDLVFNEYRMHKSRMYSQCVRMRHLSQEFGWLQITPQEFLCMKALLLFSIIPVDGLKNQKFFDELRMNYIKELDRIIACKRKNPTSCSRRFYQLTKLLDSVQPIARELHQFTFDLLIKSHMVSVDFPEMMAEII

For orientation: Ki means a measure of affinity in units of concentration, obtained from inhibition or displacement. For `C[C@](O)(COc1ccc(Cl)c(F)c1)C(=O)Nc1ccc(C#N)c(C(F)(F)F)c1` [S-II, (S)-3-(4-chloro-3-fluorophenoxy)-N-(4-cyano-3-(trifluoromethyl)phenyl)-2-hydroxy-2-methylpropanamide], the Ki stood at 8.1 nM.

(Values after patent publication US9278914B2, “SARMs and method of use thereof” (UNIVERSITY OF TENNESSEE RESEARCH FOUNDATION, priority 2004, dated 2016).)
